Test results: PubChem BioAssay AID1010 (Sanford-Burnham Center for Chemical Genomics, 2008)
This is a selection; strong and weak results do not stand in their true shares. Active and inactive are the calls of the source.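 How the source made its calls: active means survival measured by cellular ATP above 50% at 15 µg/ml in the first screen; inactive means the rest.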

Test: protection against thapsigargin ER stress killing – CSM14.1 cells, ATP luminescence, primary screen (AID 1010);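 further: cell death triggered by about 15 µM thapsigargin; ATP read 24 h after thapsigargin was added; plate controls were thapsigargin with DMSO for no effect and DMSO without thapsigargin for full effect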
Details: CSM14.1 thapsigargin ER stress survival, active compounds read high, screened at 15 µg/mL (by protocol)

Structure (SMILES)	relative survival (cellular ATP)
CP(=O)(Oc1ccc(F)cc1)Oc1ccc(F)cc1	inactive: 2.2%
CCc1ccc(OP(C)(=O)O)cc1	inactive: -8.4%
CN(C)CCOC(=O)C(O)(c1ccccc1)c1ccccc1	inactive: 8.9%
CP(=O)(Oc1ccccc1F)Oc1ccccc1F	inactive: 29.7%
CCOP(C)(=S)SCC(=O)NC(C)C(=O)O (configuration not stated)	inactive: 1.5%
CP(=O)(Oc1ccccc1)Oc1ccccc1	inactive: 16.8%
CP(=O)(Oc1ccc(Cl)cc1)Oc1ccc(Cl)cc1	inactive: 9.4%
